In general, IC50 refers to the concentration that gives 50% inhibition. A lower IC50 goes with higher potency.

Sequences of proteins named here, by UniProt entry; tags and fusion partners are left off. A change or cut given only in a name is not applied to a line headed by its entry.
UniProt Q06187: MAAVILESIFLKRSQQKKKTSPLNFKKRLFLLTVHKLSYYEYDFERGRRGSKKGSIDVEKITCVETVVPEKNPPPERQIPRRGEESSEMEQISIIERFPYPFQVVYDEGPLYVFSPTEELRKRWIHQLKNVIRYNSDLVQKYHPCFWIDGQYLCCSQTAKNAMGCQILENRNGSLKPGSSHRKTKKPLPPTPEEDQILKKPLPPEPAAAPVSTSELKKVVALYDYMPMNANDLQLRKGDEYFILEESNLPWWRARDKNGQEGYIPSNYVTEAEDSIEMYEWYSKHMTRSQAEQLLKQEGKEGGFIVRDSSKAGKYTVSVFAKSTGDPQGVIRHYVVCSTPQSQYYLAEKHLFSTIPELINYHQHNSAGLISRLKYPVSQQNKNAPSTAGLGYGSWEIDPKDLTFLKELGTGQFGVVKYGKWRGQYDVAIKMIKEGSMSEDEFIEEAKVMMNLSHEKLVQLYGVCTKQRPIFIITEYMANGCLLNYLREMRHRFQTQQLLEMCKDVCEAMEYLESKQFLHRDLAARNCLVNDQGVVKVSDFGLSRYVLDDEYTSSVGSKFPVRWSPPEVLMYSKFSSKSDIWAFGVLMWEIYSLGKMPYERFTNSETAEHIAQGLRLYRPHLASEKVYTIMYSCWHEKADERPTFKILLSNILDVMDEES

In ChEMBL document CHEMBL5385861 one finds IC50 data, which are given here for one molecule.

In this experiment the target is Tyrosine-protein kinase BTK (Homo sapiens, UniProt Q06187). Nature of the experiment: Inhibition of BTK (unknown origin) incubated for 40 mins by radiometric kinase assay.

Each structure is given as a SMILES string.

For `C=CC(=O)Nc1cccc(Nc2nc(Nc3ccc(OCCOC)cc3)ncc2F)c1` [SPEBRUTINIB], 54 nM corresponded to half-maximal inhibition (IC50).
